Measurements as given in patent US10501458B2, “Substituted bicyclic fused ring compounds as indoleamine-2,3-dioxygenase inhibitors” (Merck Sharp & Dohme Corp., priority 2015, dated 2019).

Chains of the proteins cited; added tags and fusions are not shown.
UniProt P48775, whole entry: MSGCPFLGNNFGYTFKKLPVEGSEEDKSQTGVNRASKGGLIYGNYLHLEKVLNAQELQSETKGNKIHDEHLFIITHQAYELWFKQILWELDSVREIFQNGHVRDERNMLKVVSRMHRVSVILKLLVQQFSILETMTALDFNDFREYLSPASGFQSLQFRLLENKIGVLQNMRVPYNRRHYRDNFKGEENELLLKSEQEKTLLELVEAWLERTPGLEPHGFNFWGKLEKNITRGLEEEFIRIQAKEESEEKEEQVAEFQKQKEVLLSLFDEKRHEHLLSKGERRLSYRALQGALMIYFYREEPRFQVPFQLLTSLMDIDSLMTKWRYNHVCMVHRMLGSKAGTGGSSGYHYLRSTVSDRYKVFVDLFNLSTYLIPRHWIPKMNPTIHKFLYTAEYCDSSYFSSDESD
UniProt P14902, whole entry: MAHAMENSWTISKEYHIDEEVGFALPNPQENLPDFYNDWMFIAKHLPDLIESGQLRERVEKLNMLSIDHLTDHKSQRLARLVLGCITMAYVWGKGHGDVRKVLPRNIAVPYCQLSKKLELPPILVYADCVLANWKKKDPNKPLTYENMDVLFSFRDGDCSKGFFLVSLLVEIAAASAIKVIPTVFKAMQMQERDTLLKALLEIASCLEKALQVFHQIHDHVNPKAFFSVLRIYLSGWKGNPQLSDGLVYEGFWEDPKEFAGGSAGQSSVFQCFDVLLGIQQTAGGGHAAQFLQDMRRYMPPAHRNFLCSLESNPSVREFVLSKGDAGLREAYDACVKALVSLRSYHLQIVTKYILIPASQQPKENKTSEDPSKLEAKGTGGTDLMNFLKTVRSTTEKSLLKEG

Tests used:
TDO = TDO (Homo sapiens (Human), UniProt P48775); test: A172 kynurenine cell-based assay; settings: A172 human glioblastoma cells, 500 μM L-tryptophan, 48 hours
Protocol: (§1) Exemplary compounds of the invention were prepared, and tested to determine their effect as TDO and/or IDO inhibitors. Two different assays were employed: 1. a cell-based assay for detecting the effect of test compounds on kynurenine production in two different cancer cell types. This assay utilised cancer cells which expressed either TDO or IDO and as such was used as a means of testing compound activity at these two enzymes in a cell-based context. 2. a TDO and IDO biochemical coupled assay which utilised recombinantly produced and purified TDO and IDO enzymes in combination with the enzyme formamidase. This coupled enzyme system allowed conversion of N-formylkynurenine produced by TDO or IDO activity to kynurenine which was then quantified by fluorescence following addition of Erhlich's Reagent The protocols for these are set out below.
(§2) Cell Based Assay for Detection of Kynurenine Produced by TDO and/or IDO
(§3) A172 (human glioblastoma) and SKOV3 (human ovarian adenocarcinoma) cells were seeded in a 96 well plate at 30,000 or 40,000 cells per well respectively in phenol red-free RPMI supplemented with 10% FCS, 2 mM L-glutamine and 500 μM L-tryptophan. IDO expression was induced in the SKOV3 cells by the addition of 500 ng/ml IFN-γ. […] The Erhlich's reagent was incubated for 5 minutes before the absorbance was read at 490 nm.

IDO [1] = biological target: T1, IDO (Homo sapiens (Human), UniProt P14902); test: SKOV3 kynurenine cell-based assay (IDO induced by IFN-γ); settings: SKOV3 human ovarian adenocarcinoma cells, 500 ng/ml IFN-γ, 500 μM L-tryptophan, 48 hours
Protocol: as §1, §2, §3

IDO [2] = biological target: T1, IDO; test: hIDO biochemical coupled assay; settings: 45 μM L-tryptophan, 17 minutes at room temperature
Protocol: as §1
TDO and IDO Biochemical Coupled Assay
Recombinant human IDO or TDO was incubated in 50 mM KPO4 (pH 7.0), 0.5 mM EGTA, 0.5 mM EDTA, 0.05% Triton™ X100, 20 mM ascorbate, 10 μM methylene blue, 500 U/ml catalase, 50 μg/ml KynB (kynurenine formamidase). […] After incubation for 17 minutes at room temperature the reactions were stopped by the addition of Erhlich's reagent and incubated at room temperature for 5 minutes before the fluorescence was read (Ex 475, Em530).

A172 Kynurenine cell based assay, pIC50 (TDO): + (+ = pIC50 4.00-4.49) | SKOV3 Kynurenine cell based assay, pIC50 (IDO [1]): +/− (+/− = pIC50 <4.00) | hIDO biochemical assay, pIC50 (IDO [2]): + (+ = pIC50 4.00-4.49)
Compound: CS(=O)(=O)N1CCC(Nc2cc(Cl)cn3cncc23)CC1
